Here are results for one compound from PubChem BioAssay AID504708 (Sanford-Burnham Center for Chemical Genomics, 2011).

Sequences of proteins named here, by UniProt entry; tags and fusion partners are left off.
UniProt Q2TB90, whole entry: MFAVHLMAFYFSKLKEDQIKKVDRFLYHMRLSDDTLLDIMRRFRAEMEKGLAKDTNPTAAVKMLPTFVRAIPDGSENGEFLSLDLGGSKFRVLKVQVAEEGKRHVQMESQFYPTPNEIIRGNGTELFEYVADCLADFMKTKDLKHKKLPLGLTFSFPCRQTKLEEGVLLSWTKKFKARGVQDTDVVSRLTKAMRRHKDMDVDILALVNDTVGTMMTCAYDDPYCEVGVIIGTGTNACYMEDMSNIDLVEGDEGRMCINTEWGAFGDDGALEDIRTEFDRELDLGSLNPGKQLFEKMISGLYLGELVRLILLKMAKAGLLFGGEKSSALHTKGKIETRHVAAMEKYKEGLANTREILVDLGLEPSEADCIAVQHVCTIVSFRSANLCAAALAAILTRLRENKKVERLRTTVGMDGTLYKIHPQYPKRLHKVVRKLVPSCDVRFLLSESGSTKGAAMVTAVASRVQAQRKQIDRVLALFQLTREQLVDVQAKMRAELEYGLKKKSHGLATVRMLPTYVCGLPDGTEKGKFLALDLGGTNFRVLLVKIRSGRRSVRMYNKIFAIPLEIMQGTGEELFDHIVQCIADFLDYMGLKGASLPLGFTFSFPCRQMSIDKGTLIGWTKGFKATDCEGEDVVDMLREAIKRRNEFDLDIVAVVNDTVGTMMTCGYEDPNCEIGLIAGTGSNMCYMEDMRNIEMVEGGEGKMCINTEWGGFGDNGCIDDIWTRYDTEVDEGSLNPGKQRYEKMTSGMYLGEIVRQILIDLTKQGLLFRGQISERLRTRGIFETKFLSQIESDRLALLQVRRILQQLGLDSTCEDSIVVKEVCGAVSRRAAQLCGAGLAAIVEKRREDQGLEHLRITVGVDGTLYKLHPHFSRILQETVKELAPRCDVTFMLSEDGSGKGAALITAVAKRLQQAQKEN

This assay addresses Hexokinase HKDC1 (Homo sapiens) (UniProt Q2TB90). As to the kind of experiment: HKDC1 hexokinase activators, confirmation, biochemical, single concentration (AID 504708). The following applies: recombinant HKDC1, G6PDH/diaphorase resazurin fluorescence; at 20 µM; active compounds read low. (Alamar Blue is a resazurin reagent that responds to reducing activity.)

Only a part is listed here, and it is no random draw. Activity calls are given as the source filed them.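 The calls were made as follows: active = inhibition at or below a set negative limit, negative inhibition meaning the enzyme was activated; inactive = the rest.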

The term inhibition denotes the drop in the measured response relative to a control, in per cent. In the case of `CC1=C2N=C(C=C3N=C(C(C)=C4[N-][C@@](C)([C@@H]5N=C1[C@](C)(CCC(=O)NC[C@@H](C)OP(=O)([O-])O[C@H]1[C@@H](O)[C@@H](n6cnc7cc(C)c(C)cc76)O[C@@H]1CO)[C@H]5CC(N)=O)[C@@](C)(CC(N)=O)[C@@H]4CCC(N)=O)[C@@](C)(CC(N)=O)[C@@H]3CCC(N)=O)C(C)(C)[C@@H]2CCC(N)=O.[C-]#N.[Co+3]`, the inhibition is inactive: -36.7%.
